Biological target: LuxN (Vibrio harveyi, UniProt P0C5S6)

The chains behind the UniProt entries cited, without tags or fusion partners. Where a name states a change or a piece, a line headed by the entry shows the natural chain unless it says otherwise.
UniProt P0C5S6: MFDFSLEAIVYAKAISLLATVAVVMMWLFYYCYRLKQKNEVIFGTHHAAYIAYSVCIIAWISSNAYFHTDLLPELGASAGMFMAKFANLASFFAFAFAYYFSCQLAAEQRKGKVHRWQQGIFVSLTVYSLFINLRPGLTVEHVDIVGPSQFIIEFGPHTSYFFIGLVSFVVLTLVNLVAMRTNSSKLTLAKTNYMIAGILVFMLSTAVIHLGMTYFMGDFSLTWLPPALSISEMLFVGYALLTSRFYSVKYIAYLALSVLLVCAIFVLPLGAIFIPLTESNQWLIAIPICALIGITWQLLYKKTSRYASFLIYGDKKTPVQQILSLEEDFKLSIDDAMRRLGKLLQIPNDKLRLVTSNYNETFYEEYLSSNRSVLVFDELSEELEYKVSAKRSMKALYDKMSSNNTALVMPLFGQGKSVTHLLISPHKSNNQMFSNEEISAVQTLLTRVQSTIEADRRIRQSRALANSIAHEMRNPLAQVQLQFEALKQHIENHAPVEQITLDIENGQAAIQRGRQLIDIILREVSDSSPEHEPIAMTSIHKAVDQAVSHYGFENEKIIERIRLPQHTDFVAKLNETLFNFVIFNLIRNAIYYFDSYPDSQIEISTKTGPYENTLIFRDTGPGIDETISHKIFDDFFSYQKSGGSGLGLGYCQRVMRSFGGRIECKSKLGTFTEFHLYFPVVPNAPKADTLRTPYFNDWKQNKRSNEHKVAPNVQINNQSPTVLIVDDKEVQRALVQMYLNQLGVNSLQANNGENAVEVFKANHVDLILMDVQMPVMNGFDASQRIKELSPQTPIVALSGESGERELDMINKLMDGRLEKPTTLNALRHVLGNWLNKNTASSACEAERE

SMILES: CC(=O)N1CCc2cc(S(=O)(=O)NC(CC(C)C)C(=O)NCc3ccc(Cl)cc3)ccc21 (stereo not shown) [Antagonist C450-0730]
- IC50: 2700 nM

Reference: US9415040B2 (priority 2008, dated 2016)
